# Screening results deposited in PubChem by Broad Institute.
# Most compounds without a hit are left out; they make up all but 1.3% or so of the library.
# PglD DTNB: blocks C. jejuni PglD acetyltransferase activity; inhibition, % at 12.5 µM; actives 0.098% (n = 360,000); purified PglD enzyme, DTNB colorimetric CoA detection; in the data active means inhibition above about 16%, passing the limit was not always enough; inconclusive means no clear call, values can overlap the other calls
# EWS-Fli block: blocks EWS/Fli oncoprotein-driven transcription; AID 651661; inhibition, % at 12.6 µM; actives 0.67% (n = 350,000); A673 NR0B1-luciferase reporter, viability-normalised;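 active means mean inhibition of at least 50% after viability correction, with every replicate also passing that limit; inconclusive means mean reaches 50% but only one of two replicates passes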;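 further: firefly luciferase signal divided by Alamar Blue viability fluorescence both relative to DMSO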
# LGR2 inh: inhibitors of bursicon-induced Drosophila LGR2 receptor cAMP signaling. HEK293 LGR2, CRE-luciferase, bursicon-stimulated, 4 h. actives 0.35% (n = 380,000). inhibition, % at 9.99 µM;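 active means drop in luminescence signal, shown as inhibition above about 50% in the replicate tests, limit read from the data, passing the limit was not always enough; inconclusive means probably only some replicates passing the limit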;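 further: agonist challenge used bursicon conditioned medium at about half maximal strength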
# miR-122 sensor: miR-122 inhibition in Huh7 cells; AID 602342; actives 0.3% (n = 340,000); activation (reporter increase), % at 12.5 µM; Huh7 miR-122 Renilla luciferase sensor, 48 h; neutral wells = 0, positive control = 100;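 active means mean replicate activation score at least 90 and every replicate individually at or above 90; inconclusive means only one of the two criteria met; inactive means neither criterion met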;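 further: higher luciferase means less miR-122 activity so hits act as miR-122 inhibitors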
# Yeast UUG start: yeast start codon fidelity modulation | S. cerevisiae UUG-firefly luciferase reporter, luminescence/redox ratio | activity score, % at 18.7 µM | 350,000 tested, 0.13% active;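 active = replicate mean at a twofold rise or more, about +100% in these data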;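 also: firefly luciferase made from a UUG start codon reports start codon fidelity; reporter light over untreated wells divided by growth signal over untreated wells; some hits fall short of that in this replicate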
# CFTR F508del cor: correctors of CFTR F508del function in bronchial epithelial cells; CFBE cells, YFP halide quenching; stimulated with forskolin plus potentiator P3; % fluorescence drop versus neutral controls; actives 0.36% (n = 350,000); activity (quench increase), % at 7.58 µM;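 active means mean added fluorescence quench of at least 8% versus neutral control, with both replicates also reaching 8%; inconclusive means only one of the mean or replicate conditions met; inactive means mean below 8% and not both replicates reaching 8%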;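 further: cells transiently co-express mutant CFTR-F508del with the halide-sensitive YFP; corrector assay measuring rescue of mutant channel to the surface after 24 h compound exposure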
# * marks the source's active call; other numbers are inactive results; ? = inconclusive; nt = no result given; [ ] = remark or other dose.
no.	canonical_smiles	PglD DTNB	EWS-Fli block	LGR2 inh
1	O=c1[nH]c(Nc2ccc(F)cc2)cc2ccccc12	32*	nt	3
2	COc1ccc([Si](C)(C)[C@@H]2[C@@H](CCO)O[C@]3(C(=O)N(Cc4cccc(N5CCOC5=O)c4)c4ccccc43)[C@H]2C)cc1	9	42	nt
3	O=C(N/N=C/c1ccc2ncccc2c1)c1ccco1	nt	18	55*
4	O=C(N/N=C/c1ccccn1)c1ccco1	0	nt	nt
5	O=c1[nH]c(CSc2ccccn2)nc2c1oc1ccccc12	nt	28	80*
6	Cc1ccc(N/C(N)=N/c2nc(C)cc(N3CCCCC3)n2)c(C)c1	nt	26	67*
7	CCc1cc(-c2nnn(CCC3COCCO3)c2CC)cc(CC)c1-c1cn(Cc2ccccc2)nn1 (configuration not stated)	6	24	11
8	O=C(c1cc(-c2ccc(Cl)cc2Cl)on1)N1CCCCCC1	4	-5	-34

no.	miR-122 sensor	Yeast UUG start	CFTR F508del cor
1	5	-83	nt
2	nt	-7	-5
3	nt	nt	-3
4	-5	-16	nt
5	3	nt	nt
6	nt	nt	0
7	1	-24	1
8	0	-48	-2

# Limited to PglD DTNB, EWS-Fli block and CFTR F508del cor, for 2 of the compounds above:
no. | structure | PglD DTNB | EWS-Fli block | CFTR F508del cor
4 | O=C(N/N=C/c1ccccn1)c1ccco1 | 0 | nt | nt
5 | O=c1[nH]c(CSc2ccccn2)nc2c1oc1ccccc12 | nt | 28 | nt

# (more compounds)
no.	canonical_smiles	PglD DTNB	EWS-Fli block	LGR2 inh
9	O=C(c1cc(-c2ccc(Cl)cc2Cl)on1)N1CCCC1	0	55*	75*
10	Cc1ccc(-c2cc(C(=O)N3CCOCC3)no2)cc1	-2	54*	63*
11	Cc1ccc(-c2cc(C(=O)N3CCCC3)no2)cc1	1	nt	nt
12	CN1CC[C@]23c4ccccc4N[C@H]1[C@]21CCN(C)[C@H]3Nc2ccccc21	4	-5	9
13	COC(=O)C1CC23C=CCN4CCC5(c6ccccc6NC15C2C)C43 (configuration not stated)	-12	33	-12
14	COc1ccc(-c2cc(=O)c3c(O)cc(O)cc3o2)cc1	2	-83	19
15	O=c1cc(-c2ccc(O)c(O)c2)oc2cc(O)cc(O)c12	-4	40	23
16	Cc1ccccc1OCc1n(CC(=O)OC2CC(C)CCC2C(C)C)c2ccccc2[n+]1C (configuration not stated)	nt	?	75*

no.	miR-122 sensor	Yeast UUG start	CFTR F508del cor
9	-2	-47	2
10	4	-69	-2
11	-3	-61	nt
12	-2	1	-2
13	148*	4	10*
14	-11	-9	9.8*
15	nt	-12	8.0*
16	nt	nt	-2

# The list goes on.
no.	canonical_smiles	PglD DTNB	EWS-Fli block	LGR2 inh
17	CC1CCC(C(C)C)C(OC(=O)Cn2c(-c3ccc(Br)cc3)[n+](C)c3ccccc32)C1 (configuration not stated)	-3	21	78*
18	Cc1cccc(-c2ccc([C@H]3[C@H](CO)N4CCCCN(C(=O)c5ccc6c(c5)OCO6)C[C@@H]34)cc2)c1	1	3	16
19	O=C(CNC(=O)c1ccco1)Nc1ccc(Cl)cc1	0	-37	17
20	CCNC(=O)C1(C)CCN(C(=O)c2cc(F)ccc2C)C1 (configuration not stated)	3	0	3
21	O=C(NC(=S)NNC(=O)c1ccccc1O)c1ccccc1	-1	6	-29
22	Cc1ccc(C(=O)NC(=S)NNC(=O)c2ccccc2O)cc1	-2	10	-4
23	CS(=O)(=O)c1ccc(C(=O)OCC(=O)NC(=O)C2CCCCC2)cc1[N+](=O)[O-]	nt	19	60*
24	CS(=O)(=O)c1ccc(C(=O)OCC(=O)N2CCN(CCC3CCCCC3)CC2)cc1[N+](=O)[O-]	-6	54*	-1

no.	miR-122 sensor	Yeast UUG start	CFTR F508del cor
17	-2	5	1
18	46[16.7 µM]	36	-6
19	-5	-19	1
20	nt	-13	16*
21	-2	-3	1
22	nt	-20	9.7*
23	nt	nt	-9
24	-14	-4	2

# Next section
no.	canonical_smiles	PglD DTNB	EWS-Fli block	LGR2 inh
25	Cc1ccccc1Cn1ccc(-c2ccc(Cl)cc2)c(C#N)c1=O	1	nt	nt
26	CCN(C(=O)CSc1nnc(C)n1-c1ccc(C)cc1)c1c(N)n(Cc2ccccc2)c(=O)[nH]c1=O	-3	-1	-15
27	CCN(C(=O)COC(=O)c1cc2c(s1)CCCC2)c1c(N)n(Cc2ccccc2)c(=O)[nH]c1=O	-6	-1	7
28	CCN(C(=O)COC(=O)c1cc2c(s1)CCC(C)C2)c1c(N)n(Cc2ccccc2)c(=O)[nH]c1=O (configuration not stated)	nt	-1	-7
29	CCN(C(=O)COC(=O)/C=C/c1ccc2c(c1)OCO2)c1c(N)n(Cc2ccccc2)c(=O)[nH]c1=O	-3	4	-2
30	CCN(C(=O)COC(=O)/C=C/c1c(C)nn(-c2ccccc2)c1C)c1c(N)n(Cc2ccccc2)c(=O)[nH]c1=O	2	-1	-10
31	Nc1c(N(CCC2=CCCCC2)C(=O)COc2ccc(F)cc2Cl)c(=O)[nH]c(=O)n1Cc1ccccc1	3	58*	-8
32	Nc1c(N(CCC2=CCCCC2)C(=O)Cc2ccc(F)cc2)c(=O)[nH]c(=O)n1Cc1ccccc1	nt	4	-6

no.	miR-122 sensor	Yeast UUG start	CFTR F508del cor
25	3	-4	nt
26	nt	-2	20*
27	nt	-23	15*
28	nt	8	3
29	-2	-8	0
30	nt	-12	10*
31	-4	-16	-3
32	nt	nt	0

# A draw from above in order of number of heavy atoms, lowest first:
no.	canonical_smiles	PglD DTNB	EWS-Fli block	LGR2 inh
27	CCN(C(=O)COC(=O)c1cc2c(s1)CCCC2)c1c(N)n(Cc2ccccc2)c(=O)[nH]c1=O	-6	-1	7
26	CCN(C(=O)CSc1nnc(C)n1-c1ccc(C)cc1)c1c(N)n(Cc2ccccc2)c(=O)[nH]c1=O	-3	-1	-15
31	Nc1c(N(CCC2=CCCCC2)C(=O)COc2ccc(F)cc2Cl)c(=O)[nH]c(=O)n1Cc1ccccc1	3	58*	-8

no.	miR-122 sensor	Yeast UUG start	CFTR F508del cor
27	nt	-23	15*
26	nt	-2	20*
31	-4	-16	-3

# Next entries:
no.	canonical_smiles	PglD DTNB	EWS-Fli block	LGR2 inh
33	C[C@H]1CN([C@@H](C)CO)C(=O)c2cc(C#CCc3ccccc3)cnc2O[C@@H]1CN(C)C(=O)Cc1cccnc1	4	5	2
34	CC(C)(C)OC(=O)N1Cc2cc3ccccc3nc2C1CO (configuration not stated)	-2	-1	18
35	COCCNc1nc(Nc2ccc(C)cc2C)c2sccc2n1	2	?	-20
36	CO[C@@H]1CN(C)C(=O)c2cc(NC(=O)C3CCC3)ccc2OC[C@H](C)N(CC2CCCCC2)C[C@@H]1C	-2	-4	8
37	O=C1OCCC1Sc1nnc(-c2ccc(Cl)cc2Cl)o1 (configuration not stated)	nt	49	74*
38	O=C1OCCC1Sc1nnc(-c2ccccc2)o1 (configuration not stated)	3	nt	nt
39	CCC(Sc1nc2ccsc2c(=O)n1Cc1ccc(C(=O)O)cc1)C(=O)Nc1ccc(Cl)cc1 (configuration not stated)	4	10	-22
40	CN1CCC(N(C)C(=O)/C=C/c2cn(-c3ccccc3)nc2-c2cccs2)CC1	nt	30	78*

no.	miR-122 sensor	Yeast UUG start	CFTR F508del cor
33	5[16.7 µM]	-4	1
34	-11	-5	2
35	-1	-11	10*
36	nt	-5	2
37	nt	nt	1
38	-4	-27	nt
39	0	-13	-4
40	nt	nt	-5

# Next part
no.	canonical_smiles	PglD DTNB	EWS-Fli block	LGR2 inh
41	CC1=NNC(=O)/C1=C\c1cn(-c2ccccc2)nc1-c1cccs1	nt	77*	59*
42	CC(SCc1ccccc1)C(=O)Nc1ccccc1-c1ccccc1 (configuration not stated)	nt	75*	3
43	O=C(c1cc(Cl)ccc1[N+](=O)[O-])n1cnc2ccccc21	-4	58*	-18
44	CCCc1nc2c(=O)n(C)c(=O)nc-2n(C)n1	-6	45	102*
45	Cn1nc(-c2ccccn2)nc2c(=O)n(C)c(=O)nc1-2	6	37	103*
46	CC1Cc2ccccc2N1c1ncnc(N)c1[N+](=O)[O-] (configuration not stated)	nt	7	64*

no.	miR-122 sensor	Yeast UUG start	CFTR F508del cor
41	nt	nt	-4
42	nt	nt	nt
43	5	-1	nt
44	-22	-13	-8
45	-8	-79	-16
46	nt	nt	-8
